# Experimental data taken from paper PMC3103436 (Journal of Translational Medicine, 2011).
# Test system: HLMs
# Assay: Chemical inhibition assays of BBR metabolism in HLMs
# Format: in vitro ADME, human
# Conditions: BBR 15 μM, inhibitor 5 μM, 30 min, control without inhibitor = 100%
# Description: Incubation conditions were optimized to ensure the linearity with respect to the microsomal protein concentration and incubation time. […] After incubation of the mixture in a 37°C water bath with opening to the air, the reaction lasted for 30 min and was terminated by addition of 800 μl cold acetonitrile. Internal standard (40 μg/ml ampicillin, dissolved in acetonitrile) was added into the mixture, and then centrifuged at 16000 g for 15 min at 4°C. The supernatant was aspirated, followed by dilution in 0.2% acetic acid. 10 μl of the aliquot was injected into the LC-MS/MS system for analysis. Control samples were incubated without NADPH. The incubation was performed in duplicates.
# α-Naphthoflavone (typical inhibitor of CYP1A2; final concentration used, 5 μM), quinidine (typical inhibitor of CYP2D6; final concentration, 5 μM) sulfaphenazole (typical inhibitor of CYP2C9; final concentration, 5 μM), troglitazone (typical inhibitor of CYP2C19; final concentration, 5 μM) and ketoconazole (typical inhibitor of CYP3A; final concentration, 5 μM) were added, respectively, to the incubation reaction containing 0.5 mg/ml HLMs, 100 mM phosphate buffer (pH 7.4) and NADPH-regenerating system at a final volume of 200 μl. […] The mixture was incubated at 37°C for 30 min and then terminated with cold acetonitrile. […]
# The flow-rate was 0.2 ml/min. […] Data were analyzed by Xcalibur 1.2 software.
structure (smiles),measurement,value
"C=C[C@H]1C[N@@]2CC[C@H]1C[C@@H]2[C@@H](O)c1ccnc2ccc(OC)cc12 [QND, quinidine]",Decrease of M2 formation,about 40%
